Literature values in patent US20090069276A1, “Treatment, prevention and amelioration of pulmonary disorders associated with chemotherapy or radiotherapy with active vitamin D compounds or mimics thereof” (Novacea, Inc., priority 2005, published 2009).

System: cancer patients
Details: Non-Hodgkin's lymphoma, Hochster 2000, cited from earlier work

## cyclophosphamide, fludarabine
3 of 27 patients
  Patients discontinuing treatment because of pulmonary toxicity: 11%
Cyclophosphamide 600, 750 or 1000 mg/m^2, fludarabine 20 mg/m^2/d
  Patients who developed grade III or IV pulmonary toxicity: 18%
